Target: T1, IR (Homo sapiens, UniProt P06213)
T1 construct: IR immunoprecipitated from Hep3B hepatocytes; endogenous in cells; host or cells: Hep3B
Assay: In vitro pull down of [35S]-βarrestin2 with IR immunoprecipitated from Hep3B hepatocytes
Type: binding
Procedure: FIGS. 12A-E show insulin stimulated the formation of Receptor/Akt/βarrestin2/Src signal complex. FIG. 12A, Direct interaction of βarrestin2 and IR. In vitro pull down assay was done using in vitro transcribed and translated [^35S]-βarrestin2 and IR immunoprecipitated from Hep3B hepatocytes. […] Hep3B hepatocytes were treated with or without 100 nM Wortmannin for 30 min, and then stimulated by 100nM insulin for 10 min. Immunoprecipitation by anti-IR or anti-Src followed by immunoblot with specific antibodies as indicated. Representative immunoblot was shown (n=3). FIG. 12E, Densitometry analysis of FIG. 6C. Data are presented as mean ±s.e.m. *P<0.05, **P<0.005, versus control.

Substance: βarrestin2: full-length βarrestin2 protein, in vitro transcribed and translated for the pull down assay
- interaction between βarrestin2 and IR in vitro: direct interactions
